Assay results taken from US10441562B2, “Aromatic farnesyl compound and application thereof” (INSTITUTE OF MICROBIOLOGY, CHINESE ACADEMY OF SCIENCES, priority 2015, dated 2019).

Molecular target: T1, protein tyrosine phosphatase 1B (PTP-1B) (Homo sapiens, UniProt P18031)
T1 sequence (P18031 1-435): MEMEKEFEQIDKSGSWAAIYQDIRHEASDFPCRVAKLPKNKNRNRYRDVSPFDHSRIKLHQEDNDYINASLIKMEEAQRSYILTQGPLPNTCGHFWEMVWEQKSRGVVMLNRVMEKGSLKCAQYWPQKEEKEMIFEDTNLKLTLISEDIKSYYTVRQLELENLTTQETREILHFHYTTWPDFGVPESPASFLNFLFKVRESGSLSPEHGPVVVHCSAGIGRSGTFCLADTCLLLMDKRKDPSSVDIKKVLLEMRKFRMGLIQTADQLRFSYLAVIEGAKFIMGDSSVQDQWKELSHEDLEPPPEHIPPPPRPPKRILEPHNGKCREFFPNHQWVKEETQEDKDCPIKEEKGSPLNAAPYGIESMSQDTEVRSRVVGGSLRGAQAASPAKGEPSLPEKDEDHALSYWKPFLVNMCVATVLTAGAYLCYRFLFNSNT
Settings: read-out: PTP-1B inhibitory activity, IC50

**Q.** For sodium vanadate [reference compound], which IC50 is on record?
**A.** The IC50 was 1.4 µM.
